Measured values from ChEMBL document CHEMBL1148787, “Novel substituted (pyridin-3-yl)phenyloxazolidinones: antibacterial agents with reduced activity against monoamine oxidase A and increased solubility” (J Med Chem, 2007).

Species: Homo sapiens
Assay: Protein binding in human plasma
Conditions: read-out: PPB (converted)

| SMILES | fraction unbound |
| --- | --- |
| C[C@H](O)c1ccc(-c2ccc(N3C[C@H](Cn4ccnn4)OC3=O)cc2F)cn1 | 0.33 |
| C[C@@H](O)c1ccc(-c2ccc(N3C[C@H](Cn4ccnn4)OC3=O)cc2F)cn1 | 0.24 |
